Measured values from article PMC10892818, “An Antiherpesviral Host-Directed Strategy Based on CDK7 Covalently Binding Drugs: Target-Selective, Picomolar-Dose, Cross-Virus Reactivity” (Pharmaceutics, 2024).

Assays:
[1] = tested on: VZV Oka-GFP; settings: 96 well format
[2] = tested on: rKSHV.219-GFP/RFP; experiment: KSHV-GFP/RFP reporter assay in iSLK.219 cells

Structure (SMILES): Nc1nc(O)c2ncn(COC(CO)CO)c2n1 [GCV, ganciclovir]
- SI (VZV-GFP system) [1]: > 34
- SI (KSHV-GFP/RFP system) ([2]; 0.05 μg/mL dox): > 460
- SI (KSHV-GFP/RFP system) ([2]; 0.5 μg/mL dox): > 460
